Assays:
Acetylcholinesterase = molecular target: T1, Acetylcholinesterase (Bos taurus, UniProt P23795)
T1 sequence (P23795 whole entry): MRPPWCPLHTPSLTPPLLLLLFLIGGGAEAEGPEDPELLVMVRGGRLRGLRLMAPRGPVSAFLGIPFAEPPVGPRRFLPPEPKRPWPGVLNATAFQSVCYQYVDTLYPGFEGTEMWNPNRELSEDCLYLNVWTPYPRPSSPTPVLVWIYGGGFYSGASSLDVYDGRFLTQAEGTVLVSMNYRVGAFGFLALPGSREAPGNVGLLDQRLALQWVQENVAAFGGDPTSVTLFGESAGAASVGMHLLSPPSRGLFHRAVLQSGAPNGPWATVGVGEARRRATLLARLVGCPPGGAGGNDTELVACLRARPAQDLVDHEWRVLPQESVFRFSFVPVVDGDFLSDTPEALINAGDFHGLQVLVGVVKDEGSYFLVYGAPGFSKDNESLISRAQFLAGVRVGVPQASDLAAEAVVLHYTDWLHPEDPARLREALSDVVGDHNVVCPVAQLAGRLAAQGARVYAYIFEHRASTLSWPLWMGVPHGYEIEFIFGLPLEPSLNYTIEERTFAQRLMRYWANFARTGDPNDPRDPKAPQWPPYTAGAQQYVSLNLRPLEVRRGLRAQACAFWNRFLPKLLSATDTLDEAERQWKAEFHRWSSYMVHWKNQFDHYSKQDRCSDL

By UniProt entry, the sequences of proteins in these tests, tags left out.
UniProt P81908, whole entry: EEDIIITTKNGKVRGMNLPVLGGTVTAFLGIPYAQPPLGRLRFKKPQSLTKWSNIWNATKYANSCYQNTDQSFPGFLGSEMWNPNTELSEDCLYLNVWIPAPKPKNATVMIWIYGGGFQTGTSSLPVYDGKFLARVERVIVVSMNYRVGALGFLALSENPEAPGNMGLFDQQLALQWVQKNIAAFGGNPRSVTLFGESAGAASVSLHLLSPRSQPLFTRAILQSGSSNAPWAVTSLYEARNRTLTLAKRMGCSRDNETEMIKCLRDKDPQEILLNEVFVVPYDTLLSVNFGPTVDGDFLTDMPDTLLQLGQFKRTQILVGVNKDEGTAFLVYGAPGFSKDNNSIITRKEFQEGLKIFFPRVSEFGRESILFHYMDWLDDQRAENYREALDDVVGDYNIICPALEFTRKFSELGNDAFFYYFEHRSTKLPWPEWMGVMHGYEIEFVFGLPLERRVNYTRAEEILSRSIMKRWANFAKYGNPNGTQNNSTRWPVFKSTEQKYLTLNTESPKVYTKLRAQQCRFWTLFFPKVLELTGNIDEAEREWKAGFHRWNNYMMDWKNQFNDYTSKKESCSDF

Cholinesterase = Cholinesterase (Equus caballus, UniProt P81908)

CNC(=O)Oc1ccc2c(c1)[C@]1(C)CCN(C)[C@@H]1N2C [PHYSOSTIGMINE]
IC50 (Acetylcholinesterase): 2580 nM
IC50 (Cholinesterase): 1340 nM

From ChEMBL document CHEMBL1157629, “Acetylcholinesterase inhibitors from the toadstool Cortinarius infractus” (Bioorg Med Chem, 2010)
